Source: the NIST ThermoML archive (doi:10.1016/j.jct.2009.07.001)

Test: excess molar enthalpy (molar enthalpy of mixing); xn = mol fraction of the nth substance listed
Details: 298.15 K, 101 kPa, Liquid, Calvet calorimetry

CCCCOCCCC [dibutyl ether] + CCCCO
Details | excess molar enthalpy
x2 = 0.0711 | 0.105 ± 0.0043 kcal/mol
x2 = 0.0787 | 0.113 ± 0.00454 kcal/mol
x2 = 0.1094 | 0.14 ± 0.00574 kcal/mol
x2 = 0.1365 | 0.158 ± 0.00645 kcal/mol
x2 = 0.1592 | 0.171 ± 0.00693 kcal/mol
x2 = 0.1825 | 0.183 ± 0.00741 kcal/mol
x2 = 0.2335 | 0.201 ± 0.00813 kcal/mol
x2 = 0.2571 | 0.206 ± 0.00837 kcal/mol
x2 = 0.2625 | 0.207 ± 0.00837 kcal/mol
x2 = 0.2632 | 0.206 ± 0.00837 kcal/mol
x2 = 0.3126 | 0.215 ± 0.00884 kcal/mol
x2 = 0.3587 | 0.217 ± 0.00884 kcal/mol
x2 = 0.3597 | 0.218 ± 0.00884 kcal/mol
x2 = 0.4155 | 0.216 ± 0.00884 kcal/mol
x2 = 0.4605 | 0.211 ± 0.0086 kcal/mol
x2 = 0.4998 | 0.206 ± 0.00837 kcal/mol
x2 = 0.5535 | 0.196 ± 0.00789 kcal/mol
x2 = 0.6027 | 0.183 ± 0.00741 kcal/mol
x2 = 0.647 | 0.17 ± 0.00693 kcal/mol
x2 = 0.6946 | 0.153 ± 0.00621 kcal/mol
x2 = 0.7472 | 0.132 ± 0.0055 kcal/mol
x2 = 0.8008 | 0.107 ± 0.0043 kcal/mol
x2 = 0.8451 | 0.0837 ± 0.00335 kcal/mol
x2 = 0.8458 | 0.0837 ± 0.00335 kcal/mol
x2 = 0.8957 | 0.0583 ± 0.00239 kcal/mol
x2 = 0.9466 | 0.0304 kcal/mol and 0.0301 kcal/mol

CCCCOCCCC [dibutyl ether] + CCCCCCCCO
Details | excess molar enthalpy [kcal/mol]
x2 = 0.0652 | 0.0925 ± 0.00382
x2 = 0.1011 | 0.125 ± 0.00502
x2 = 0.1512 | 0.157 ± 0.00645
x2 = 0.2017 | 0.178 ± 0.00717
x2 = 0.2446 | 0.19 ± 0.00765
x2 = 0.2981 | 0.198 ± 0.00813
x2 = 0.3382 | 0.202 ± 0.00813
x2 = 0.3986 | 0.203 ± 0.00837
x2 = 0.4432 | 0.2 ± 0.00813
x2 = 0.4966 | 0.193 ± 0.00789
x2 = 0.5393 | 0.186 ± 0.00765
x2 = 0.5907 | 0.17 ± 0.00693
x2 = 0.5961 | 0.168 ± 0.00693
x2 = 0.6363 | 0.158 ± 0.00645
x2 = 0.7087 | 0.132 ± 0.0055
x2 = 0.7311 | 0.125 ± 0.00502
x2 = 0.787 | 0.102 ± 0.00406
x2 = 0.83 | 0.0822 ± 0.00335
x2 = 0.879 | 0.0586 ± 0.00239
x2 = 0.9304 | 0.0332 ± 0.00143
x2 = 0.937 | 0.0299 ± 0.0012

CCCCOCCCC [dibutyl ether] + CCCO
Details | excess molar enthalpy [kcal/mol]
x2 = 0.0724 | 0.108 ± 0.0043
x2 = 0.0791 | 0.115 ± 0.00478
x2 = 0.1166 | 0.148 ± 0.00598
x2 = 0.1662 | 0.177 ± 0.00717
x2 = 0.2052 | 0.195 ± 0.00789
x2 = 0.2617 | 0.21 ± 0.0086
x2 = 0.3022 | 0.218 ± 0.00884
x2 = 0.3489 | 0.222 ± 0.00908
x2 = 0.4017 | 0.222 ± 0.00908
x2 = 0.4463 | 0.219 ± 0.00884
x2 = 0.5005 | 0.211 ± 0.0086
x2 = 0.5249 | 0.207 ± 0.00837
x2 = 0.5979 | 0.188 ± 0.00765
x2 = 0.6502 | 0.172 ± 0.00693
x2 = 0.692 | 0.159 ± 0.00645
x2 = 0.6962 | 0.154 ± 0.00621
x2 = 0.7435 | 0.135 ± 0.0055
x2 = 0.7913 | 0.109 ± 0.00454
x2 = 0.8422 | 0.086 ± 0.00359
x2 = 0.8918 | 0.0614 ± 0.00263
x2 = 0.939 | 0.0344 ± 0.00143

CCCCOCCCC [dibutyl ether] + CCCCCO
Details | excess molar enthalpy [kcal/mol]
x2 = 0.0545 | 0.0841 ± 0.00335
x2 = 0.1134 | 0.139 ± 0.00574
x2 = 0.1626 | 0.169 ± 0.00693
x2 = 0.2027 | 0.186 ± 0.00765
x2 = 0.2518 | 0.199 ± 0.00813
x2 = 0.2984 | 0.206 ± 0.00837
x2 = 0.3486 | 0.212 ± 0.0086
x2 = 0.3983 | 0.211 ± 0.0086
x2 = 0.4484 | 0.209 ± 0.0086
x2 = 0.4942 | 0.201 ± 0.00813
x2 = 0.5466 | 0.193 ± 0.00789
x2 = 0.6023 | 0.178 ± 0.00717
x2 = 0.6444 | 0.167 ± 0.00669
x2 = 0.6876 | 0.145 ± 0.00598
x2 = 0.7406 | 0.127 ± 0.00526
x2 = 0.795 | 0.103 ± 0.0043
x2 = 0.8434 | 0.0803 ± 0.00335
x2 = 0.891 | 0.0562 ± 0.00239
x2 = 0.9389 | 0.0306 ± 0.0012

CCCCOCCCC [dibutyl ether] + CO
Details | excess molar enthalpy [kcal/mol]
x2 = 0.0607 | 0.0796 ± 0.00335
x2 = 0.1267 | 0.129 ± 0.00526
x2 = 0.1719 | 0.152 ± 0.00621
x2 = 0.1987 | 0.163 ± 0.00669
x2 = 0.214 | 0.168 ± 0.00693
x2 = 0.2805 | 0.183 ± 0.00741
x2 = 0.313 | 0.189 ± 0.00765
x2 = 0.3816 | 0.191 ± 0.00789
x2 = 0.3979 | 0.193 ± 0.00789
x2 = 0.462 | 0.191 ± 0.00789
x2 = 0.4968 | 0.189 ± 0.00765
x2 = 0.5453 | 0.183 ± 0.00741
x2 = 0.6012 | 0.173 ± 0.00693
x2 = 0.6454 | 0.162 ± 0.00669
x2 = 0.6968 | 0.15 ± 0.00621
x2 = 0.7455 | 0.134 ± 0.0055
x2 = 0.7992 | 0.115 ± 0.00478
x2 = 0.8467 | 0.0946 ± 0.00382
x2 = 0.8963 | 0.0722 ± 0.00287
x2 = 0.9439 | 0.0423 ± 0.00167

CCCCOCCCC [dibutyl ether] + CCCCCCO
Details | excess molar enthalpy [kcal/mol]
x2 = 0.0558 | 0.0827 ± 0.00335
x2 = 0.1107 | 0.134 ± 0.0055
x2 = 0.1491 | 0.157 ± 0.00645
x2 = 0.2032 | 0.18 ± 0.00741
x2 = 0.2488 | 0.193 ± 0.00789
x2 = 0.2982 | 0.201 ± 0.00813
x2 = 0.3477 | 0.204 ± 0.00837
x2 = 0.3965 | 0.205 ± 0.00837
x2 = 0.4418 | 0.203 ± 0.00837
x2 = 0.5016 | 0.195 ± 0.00789
x2 = 0.5449 | 0.186 ± 0.00765
x2 = 0.5978 | 0.174 ± 0.00717
x2 = 0.6464 | 0.157 ± 0.00645
x2 = 0.6913 | 0.141 ± 0.00574
x2 = 0.7354 | 0.125 ± 0.00502
x2 = 0.7958 | 0.0992 ± 0.00406
x2 = 0.8479 | 0.0753 ± 0.00311
x2 = 0.888 | 0.0557 ± 0.00239
x2 = 0.9318 | 0.0325 ± 0.00143
x2 = 0.9326 | 0.0327 ± 0.00143

Several values for one entry are separate records, joined by “and”; a condition that tells them apart may be missing. Equal values may be shown once. ± gives the expanded uncertainty stated by the source.
